Test results reported in US20230088214A1, “GLYCOLATE OXIDASE INHIBITORS FOR THE TREATMENT OF DISEASE” (BIOMARIN PHARMACEUTICAL INC., priority 2019, published 2023).

Sequences of proteins named here, by UniProt entry; tags and fusion partners are left off.
UniProt Q9UJM8, whole entry: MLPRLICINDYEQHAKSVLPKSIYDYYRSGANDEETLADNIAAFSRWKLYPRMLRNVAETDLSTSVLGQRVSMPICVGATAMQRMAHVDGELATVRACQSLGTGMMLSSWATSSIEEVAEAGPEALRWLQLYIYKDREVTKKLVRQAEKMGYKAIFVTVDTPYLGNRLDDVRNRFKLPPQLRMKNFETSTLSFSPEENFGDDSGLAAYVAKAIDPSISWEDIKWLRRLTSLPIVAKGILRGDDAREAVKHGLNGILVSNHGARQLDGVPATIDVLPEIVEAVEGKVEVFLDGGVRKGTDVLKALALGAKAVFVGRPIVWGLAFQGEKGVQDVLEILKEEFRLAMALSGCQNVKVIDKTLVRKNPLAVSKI

Molecular target: Human GO (Homo sapiens, UniProt Q9UJM8)
Experiment: GO Enzymatic Assay (Assay 1)
Format: biochemical
Settings: read-out: Range of IC50 values calculated from the enzymatic assays (Assay 1), glycolate substrate, pH 7, percent inhibition relative to DMSO control, tested form: 2,2,2-trifluoroacetate

O=C(O)c1[nH]nnc1SCc1ccc(N2CCCCC2)c2ccccc12
IC50: < 100 nM
